Data published in US20150148256A1, “BIOLUMINESCENCE IMAGING-BASED SCREENING ASSAY AND INHIBITORS OF ABCG2” (THE JOHNS HOPKINS UNIVERSITY, priority 2008, published 2015).

Protein sequences, listed by entry. Tags and fused reporters are not part of them. Lines headed by an entry give the natural chain unless they say otherwise; changes in a name come on top.
UniProt Q9UNQ0: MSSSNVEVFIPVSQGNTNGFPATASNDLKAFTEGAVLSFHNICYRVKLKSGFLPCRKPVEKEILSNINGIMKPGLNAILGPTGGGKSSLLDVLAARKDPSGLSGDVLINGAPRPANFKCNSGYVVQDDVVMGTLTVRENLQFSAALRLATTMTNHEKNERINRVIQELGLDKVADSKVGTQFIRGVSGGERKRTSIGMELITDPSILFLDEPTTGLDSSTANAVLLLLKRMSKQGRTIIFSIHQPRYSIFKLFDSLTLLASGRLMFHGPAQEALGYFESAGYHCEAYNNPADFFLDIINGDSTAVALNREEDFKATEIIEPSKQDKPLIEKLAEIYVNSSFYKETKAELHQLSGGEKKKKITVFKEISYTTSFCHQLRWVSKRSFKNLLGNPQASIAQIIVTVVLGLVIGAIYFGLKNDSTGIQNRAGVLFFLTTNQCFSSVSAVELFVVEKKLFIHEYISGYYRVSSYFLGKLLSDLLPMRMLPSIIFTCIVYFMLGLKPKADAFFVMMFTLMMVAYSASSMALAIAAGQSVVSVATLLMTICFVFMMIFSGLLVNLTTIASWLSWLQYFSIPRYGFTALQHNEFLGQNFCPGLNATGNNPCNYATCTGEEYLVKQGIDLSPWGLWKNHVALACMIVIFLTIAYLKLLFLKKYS

Target: ABCG2 (Homo sapiens, UniProt Q9UNQ0)

lopinavir/ritonavir
Fold (BLI enhancement, S/B ratio over control): 3.5 fold | fold (BLI enhancement), additional previously known ABCG2 inhibitors: 3.5 fold
